Results from patent US20030086820A1 (priority 2001, published 2003).

Target: Bovine serum albumin (BSA) (Bos taurus, UniProt P02769)

For potassium hydroxide [KOH], the protein removed was “less than 1 mg/cm^2”.
